Publication PMC6278354, “Investigation of New Orexin 2 Receptor Modulators Using In Silico and In Vitro Methods” (Molecules, 2018)

Test: in vitro
Details: PAMPA, pH 7.4

CCN(C)C(=O)Oc1cccc([C@H](C)N(C)C)c1 [Rivastigmine, reference compound]
Papp: 20 ± 2.1 ×10⁻⁶ cm/s
